Columns and labels:
[1] = Treatment of IR dye with oxidative and reducing reagents to degrade the dye (TABLE I); type: physicochemical
[2] = Attempt to precipitate the anionic chromophore of IR Dye I as insoluble salts; type: physicochemical; details: IR Dye I 0.3% in methanol; 3% solution of compound in water

Row | Substance | Change Noticed [1] | precipitation of IR Dye I [2]
1 | Ammonium thiosulfate | Dye bleached pink | –
2 | Cl-Peroxy benzoic acid | Dye bleached pink | –
3 | Manganous nitrate | Black | –
4 | barium chloride | – | None of these compounds precipitated IR Dye I
